Test results from patent US8753308B2.
Only a part of the results on these compounds is given; other tests are left out.

How the values were obtained:
[1] = Human clinical PK study: sublingual sufentanil dosage forms vs IV sufentanil in healthy volunteers
[2] = PK of sublingual sufentanil solution and ingested sufentanil dosage form vs IV sufentanil in Beagle dogs (Example 4); details: denominator literature half-life 139 min, listed as IV sufentanil
[3] = SUFENTA and Actiq package inserts; cited from earlier work
[4] = cited from earlier work
[5] = in vivo; cited from earlier work

CCC(=O)N(c1ccccc1)C1(COC)CCN(CCc2cccs2)CC1
time spent above 50% of Cmax ([1]; average for the 12 volunteers): 10 min
Tmax ([1]; single administration): 9.6 ± 1.8 min
Therapeutic Time Ratio [2]: 0.03
protein binding [3]: 91-93%
pKa [4]: 8.01

CCC(=O)N(c1ccccc1)C1CCN(CCc2ccccc2)CC1
bioavailability from the GI route [5]: 30%
pKa [4]: 8.43
